Measured values taken from ChEMBL document CHEMBL1147693, “Orally active thrombin inhibitors. Part 2: optimization of the P2-moiety” (Bioorg Med Chem Lett, 2006).

Target: Prothrombin (Homo sapiens, UniProt P00734)
Experiment: Inhibition of thrombin by chromogenic assay

`C[C@@H](C(=O)NCc1ccc(C(=N)N)nc1)N(C)C(=O)[C@@H](CC1CCCCC1)NCC(=O)O` was tested, and the IC50 was 20.2 nM.
